# Source: patent publication US20140378460A1, “COMPOSITIONS AND METHODS FOR TREATING NEURODEGENERATIVE DISEASE” (COGNITION THERAPEUTICS, INC., priority 2011, published 2014)
# Assays:
# Sigma-1 receptors = settings: Table 11E, clinical compounds; first figure of S1/S2; read-out: Sigma Affinity (S1); cited from earlier work
# [1] = system: Abeta oligomer-induced membrane trafficking deficits in primary hippocampal neurons; assay: Membrane trafficking/exocytosis (MTT) assay; type: cell-based, rat; settings: 20 uM versus 0 uM enantiomer
# [2] = Mouse hepatic microsome stability; settings: microsomes
# [3] = male, C57BL/6, mouse
# [4] = system: Abeta oligomer-induced memory deficits in wt C57BL/6 mice; assay: Contextual fear conditioning, intrahippocampal Abeta oligomers; settings: mouse, in vivo
# Procedure: Several pharmaceutical companies use this same model in their discovery efforts. Contextual fear conditioning is an accepted model of associative memory formation which correlates to human cognitive function and specifically the creation of new memories (Delgado '06). Abeta oligomers are injected into the hippocampus of wild-type animals immediately before conditioning training and memory is assessed via freezing behavior after 24 hours. See, for example, FIGS. 4 and 8. Details are provided in Example 9. […] This model system was chosen because intrahippocampal administration of oligomers allows rapid comparative assessment of compound activity and off-target toxicity. The results are shown graphically in FIG. 4.
# Compound II was tested in an animal model of a memory-dependent behavioral task known as fear conditioning. The study protocol was designed based on published protocols (See e.g. Puzzo D, Privitera L, Leznik E, Fà M, Staniszewski A, Palmeri A, Arancio O. Picomolar amyloid-beta positively modulates synaptic plasticity and memory in hippocampus. J. Neurosci. 2008 Dec. 31; 28(53):14537-45.). The formation of contextual memories is dependent upon the integrity of medial temporal lobe structures such as the hippocampus. […]
smiles,measurement,setting,value
"CC(C)=CCN1CCC2(C)c3cc(O)ccc3CC1C2C (stereo not shown) [Pentazocine, pentazocine]",Ki,Sigma-1 receptors,1.2 nM
"COc1cc(CCC(C)NCc2ccc(C(F)(F)F)cc2)ccc1O (single isomer, unassigned; (+)) [(+) enantiomer of Cpd II]",Curve shift (fold),[1],2.86 fold
"COc1cc(CCC(C)NCc2ccc(C(F)(F)F)cc2)ccc1O (single isomer, unassigned; (-)) [(−) enantiomer of Cpd II]",Curve shift (fold),[1],1.22 fold
COc1cc(CCC(C)NCc2ccc(C(F)(F)F)cc2)ccc1O (stereo not shown) [Compound II],half-life,[2],16 min
same,brain concentration relative to the efficacious brain dose in vivo,[3]; 180 min,57 ×
same,amount in brain relative to the 50 ng/mL efficacious dose,"[3]; in vivo, po, 3 h",~40 ×
same,Behavioral efficiency,[4],Yes
